These are literature values, as cited in paper PMC6397219, “Rapid one-step ^18F-radiolabeling of biomolecules in aqueous media by organophosphine fluoride acceptors” (Nature Communications, 2019).

For this data set the following is noted: cited from earlier work.

For the substance Human serum albumin, the plasma half-life was 16 to 18 h.
